How the values were obtained:
rat P2X7 = rat P2X7 (Rattus norvegicus (Rat), UniProt Q64663); experiment: Ca2+ flux (FLIPR) in 1321N1 cells expressing recombinant rat P2X7 channel; type: cell-based; conditions: 250 μM BzATP
Procedure: (§1) (A) Ca^2+ Flux: 1321N1 cells expressing the recombinant human, rat or mouse P2X7 channel was cultured in HyQ DME/(HyClone/Dulbecco's Modified Eagle Medium) high glucose supplemented with 10% Fetal Bovine Serum (FBS) and appropriate selection marker. Cells were seeded at a density of 25000 cells/well (96-well clear bottom black walled plates) in 100 μl volume/well. On the day of the experiment, cell plates were washed with assay buffer, containing (in mM): 130 NaCl, 2 KCl, 1 CaCl2, 1 MgCl2, 10 HEPES, 5 glucose; pH 7.40 and 300 mOs. After the wash, cells were loaded with the Calcium-4 dye (Molecular Device) and incubated in the dark for 60 minutes. Test compounds were prepared at 250× the test concentration in neat DMSO. Intermediate 96-well compound plates were prepared by transferring 1.2 μL of the compound into 300 μL of assay buffer. A further 3× dilution occurred when transferring 50 μL/well of the compound plate to 100 μL/well in the cell plate. Cells were incubated with test compounds and dye for 30 minutes. […] The fluorescence change was measured 180 seconds after adding the agonist.

Protein sequences, listed by entry. Tags and fused reporters are not part of them. Lines headed by an entry give the natural chain unless they say otherwise; changes in a name come on top.
UniProt Q64663: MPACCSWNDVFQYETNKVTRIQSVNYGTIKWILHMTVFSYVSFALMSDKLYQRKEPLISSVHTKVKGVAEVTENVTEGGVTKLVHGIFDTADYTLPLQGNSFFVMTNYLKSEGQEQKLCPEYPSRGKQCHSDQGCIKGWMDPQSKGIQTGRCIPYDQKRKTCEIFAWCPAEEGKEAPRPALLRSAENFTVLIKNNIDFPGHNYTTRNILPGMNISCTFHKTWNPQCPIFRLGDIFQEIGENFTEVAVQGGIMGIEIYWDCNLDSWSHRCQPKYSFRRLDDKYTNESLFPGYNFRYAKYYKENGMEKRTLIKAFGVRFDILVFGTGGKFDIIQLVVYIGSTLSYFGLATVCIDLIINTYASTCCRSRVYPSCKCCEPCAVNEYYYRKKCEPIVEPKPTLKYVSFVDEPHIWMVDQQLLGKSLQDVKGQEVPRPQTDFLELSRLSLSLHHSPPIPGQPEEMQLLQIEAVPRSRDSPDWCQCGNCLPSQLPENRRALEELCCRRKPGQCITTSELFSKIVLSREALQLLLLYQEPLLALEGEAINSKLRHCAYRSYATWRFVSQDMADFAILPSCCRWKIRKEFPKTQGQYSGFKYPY
UniProt Q99572: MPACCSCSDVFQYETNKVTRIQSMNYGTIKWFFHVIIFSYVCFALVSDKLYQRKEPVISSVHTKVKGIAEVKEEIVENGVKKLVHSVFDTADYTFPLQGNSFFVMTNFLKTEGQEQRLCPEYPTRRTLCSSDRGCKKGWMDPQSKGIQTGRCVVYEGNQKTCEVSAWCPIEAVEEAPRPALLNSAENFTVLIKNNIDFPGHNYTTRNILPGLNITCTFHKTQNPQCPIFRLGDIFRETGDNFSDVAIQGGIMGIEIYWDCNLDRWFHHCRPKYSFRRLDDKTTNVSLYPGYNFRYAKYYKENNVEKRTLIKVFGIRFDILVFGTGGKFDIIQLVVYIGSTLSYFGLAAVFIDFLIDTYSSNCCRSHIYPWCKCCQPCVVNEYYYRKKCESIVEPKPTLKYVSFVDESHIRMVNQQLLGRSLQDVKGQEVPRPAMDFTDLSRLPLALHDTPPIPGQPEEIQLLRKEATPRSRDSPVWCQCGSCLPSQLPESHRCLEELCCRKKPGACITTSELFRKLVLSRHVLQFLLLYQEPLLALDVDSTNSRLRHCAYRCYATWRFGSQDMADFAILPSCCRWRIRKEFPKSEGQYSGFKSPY

P2X7 = P2X7 (Homo sapiens (Human), UniProt Q99572); experiment: Ca2+ flux (FLIPR) in 1321N1 cells expressing recombinant human P2X7 channel; type: cell-based; conditions: 250 μM BzATP
Procedure: as §1

| SMILES | IC50 (rat P2X7) [µM] | IC50 (P2X7) [µM] |
| --- | --- | --- |
| C[C@H]1Cn2c(nnc2-c2ccc(Cl)cn2)C(=O)N1Cc1cccc(C(F)(F)F)c1Cl [Example 56, (6S)-3-(5-Chloropyridin-2-yl)-7-[2-chloro-3-(trifluoromethyl)benzyl]-6-methyl-6,7-dihydro[1,2,4]triazolo[4,3-a]pyrazin-8(5H)-one] | 0.824 | 0.0659 |
| C[C@H]1Cn2c(nnc2-c2cncs2)C(=O)N1Cc1cccc(C(F)(F)F)c1Cl [Example 37, (6S)-7-[2-Chloro-3-(trifluoromethyl)benzyl]-6-methyl-3-(1,3-thiazol-5-yl)-6,7-dihydro[1,2,4]triazolo[4,3-a]pyrazin-8(5H)-one] | 1.21 | – |
| C[C@H]1Cn2c(nnc2-c2cccc(C(F)(F)F)n2)C(=O)N1Cc1cccc(C(F)(F)F)c1Cl [Example 55, (6S)-7-[2-Chloro-3-(trifluoromethyl)benzyl]-6-methyl-3-[6-(trifluoromethyl)pyridin-2-yl]-6,7-dihydro[1,2,4]triazolo[4,3-a]pyrazin-8(5H)-one] | 0.743 | 0.315 |
| Cc1cnc(-c2nnc3n2C[C@H](C)N(Cc2cccc(C(F)(F)F)c2Cl)C3=O)cn1 [Example 19, (6S)-7-[2-Chloro-3-(trifluoromethyl)benzyl]-6-methyl-3-(5-methylpyrazin-2-yl)-6,7-dihydro[1,2,4]triazolo[4,3-a]pyrazin-8(5H)-one] | 3.16 | 0.02 |
| C[C@H]1Cn2c(nnc2-c2ccncn2)C(=O)N1Cc1cccc(C(F)(F)F)c1Cl [Example 33, (6S)-7-[2-Chloro-3-(trifluoromethyl)benzyl]-6-methyl-3-pyrimidin-4-yl-6,7-dihydro[1,2,4]triazolo[4,3-a]pyrazin-8(5H)-one] | 14.3 | 0.0043 |
| C[C@H]1Cn2c(nnc2-c2cnn(C)c2)C(=O)N1Cc1cccc(C(F)(F)F)c1Cl [Example 24, (6S)-7-[2-Chloro-3-(trifluoromethyl)benzyl]-6-methyl-3-(1-methyl-1H-pyrazol-4-yl)-6,7-dihydro[1,2,4]triazolo[4,3-a]pyrazin-8(5H)-one] | > 10 | 0.143 |
| C[C@H]1Cn2c(nnc2-c2ccon2)C(=O)N1Cc1cccc(C(F)(F)F)c1Cl [Example 41, (6S)-7-[2-Chloro-3-(trifluoromethyl)benzyl]-3-isoxazol-3-yl-6-methyl-6,7-dihydro[1,2,4]triazolo[4,3-a]pyrazin-8(5H)-one] | 2.78 | 0.0264 |
| C[C@H]1Cn2c(nnc2-c2ccncc2)C(=O)N1Cc1cccc(C(F)(F)F)c1Cl [Example 47, (6S)-7-[2-Chloro-3-(trifluoromethyl)benzyl]-6-methyl-3-pyridin-4-yl-6,7-dihydro[1,2,4]triazolo[4,3-a]pyrazin-8(5H)-one] | 14.4 | – |
| Cc1cncc(-c2nnc3n2C[C@H](C)N(Cc2cccc(C(F)(F)F)c2Cl)C3=O)c1 [Example 57, (6S)-7-[2-Chloro-3-(trifluoromethyl)benzyl]-6-methyl-3-(5-methylpyridin-3-yl)-6,7-dihydro[1,2,4]triazolo[4,3-a]pyrazin-8(5H)-one] | > 10 | – |
| C[C@H]1Cn2c(nnc2-c2cscn2)C(=O)N1Cc1cccc(C(F)(F)F)c1Cl [Example 32, (6S)-7-[2-Chloro-3-(trifluoromethyl)benzyl]-6-methyl-3-(1,3-thiazol-4-yl)-6,7-dihydro[1,2,4]triazolo[4,3-a]pyrazin-8(5H)-one] | 0.016 | 0.0002 |
| Cc1nc(-c2nnc3n2C[C@H](C)N(Cc2cccc(C(F)(F)F)c2Cl)C3=O)cs1 [Example 36, (6S)-7-[2-Chloro-3-(trifluoromethyl)benzyl]-6-methyl-3-(2-methyl-1,3-thiazol-4-yl)-6,7-dihydro[1,2,4]triazolo[4,3-a]pyrazin-8(5H)-one] | 1.06 | – |
| Cc1ncsc1-c1nnc2n1C[C@H](C)N(Cc1cccc(C(F)(F)F)c1Cl)C2=O [Example 40, (6S)-7-[2-Chloro-3-(trifluoromethyl)benzyl]-6-methyl-3-(4-methyl-1,3-thiazol-5-yl)-6,7-dihydro[1,2,4]triazolo[4,3-a]pyrazin-8(5H)-one] | – | 0.0104 |
| C[C@H]1Cn2c(nnc2-c2cnco2)C(=O)N1Cc1cccc(C(F)(F)F)c1Cl [Example 22, (6S)-7-[2-Chloro-3-(trifluoromethyl)benzyl]-6-methyl-3-(1,3-oxazol-5-yl)-6,7-dihydro[1,2,4]triazolo[4,3-a]pyrazin-8(5H)-one] | 3.16 | 0.0398 |
| C[C@H]1Cn2c(nnc2-c2nccc(C(F)(F)F)n2)C(=O)N1Cc1cccc(C(F)(F)F)c1Cl [Example 54, (6S)-7-[2-chloro-3-(trifluoromethyl)benzyl]-6-methyl-3-[4-(trifluoromethyl)pyrimidin-2-yl]-6,7-dihydro[1,2,4]triazolo[4,3-a]pyrazin-8(5H)-one] | – | 0.0017 |
| C[C@H]1Cn2c(nnc2C2CCN(C(=O)OC(C)(C)C)C2)C(=O)N1Cc1cccc(C(F)(F)F)c1Cl (stereo partly drawn) [Example 58, (6S)-tert-Butyl3-{7-[2-chloro-3-(trifluoromethyl)benzyl]-6-methyl-8-oxo-5,6,7,8-tetrahydro[1,2,4]triazolo[4,3-a]pyrazin-3-yl}pyrrolidine-1-carboxylate] | – | 12.2 |
| C[C@H]1Cn2c(nnc2-c2cocn2)C(=O)N1Cc1cccc(C(F)(F)F)c1Cl [Example 21, (6S)-7-[2-Chloro-3-(trifluoromethyl)benzyl]-6-methyl-3-(1,3-oxazol-4-yl)-6,7-dihydro[1,2,4]triazolo[4,3-a]pyrazin-8(5H)-one] | – | < 0.001 |

Second part, the compound after the results:

| IC50 (rat P2X7) [µM] | IC50 (P2X7) [µM] | SMILES |
| --- | --- | --- |
| 3.27 | 0.0425 | C[C@H]1Cn2c(nnc2-c2cnccn2)C(=O)N1Cc1ccc(F)cc1Cl [Example 78, (6S)-7-(2-Chloro-4-fluorobenzyl)-6-methyl-3-pyrazin-2-yl-6,7-dihydro[1,2,4]triazolo[4,3-a]pyrazin-8(5H)-one] |
| – | 0.001 | O=C1c2nnc(-c3ncccn3)n2C[C@H](C2CC2)N1Cc1cccc(C(F)(F)F)c1Cl (single isomer, unassigned) [Example 66, (6S*)-7-[2-Chloro-3-(trifluoromethyl)benzyl]-6-cyclopropyl-3-pyrimidin-2-yl-6,7-dihydro[1,2,4]triazolo[4,3-a]pyrazin-8(5H)-one] |
| 0.708 | 0.0016 | Cc1c(CN2C(=O)c3nnc(-c4cnccn4)n3C[C@@H]2C)cccc1C(F)(F)F [Example 85, (6S)-6-Methyl-7-[2-methyl-3-(trifluoromethyl)benzyl]-3-pyrazin-2-yl-6,7-dihydro[1,2,4]triazolo[4,3-a]pyrazin-8(5H)-one] |
| – | 0.0043 | O=C1c2nnc(-c3cccnc3)n2CC(C2CC2)N1Cc1cccc(C(F)(F)F)c1Cl (racemic) [Example 67, (±)-7-[2-Chloro-3-(trifluoromethyl)benzyl]-6-cyclopropyl-3-pyridin-3-yl-6,7-dihydro[1,2,4]triazolo[4,3-a]pyrazin-8(5H)-one] |
| > 10 | 0.0865 | C[C@H](c1ccccc1)N1C(=O)c2nnc(-c3cnccn3)n2C[C@@H]1C (relative stereo) [Example 94, (6S)-6-Methyl-7-[(1R*)-1-phenylethyl]-3-pyrazin-2-yl-6,7-dihydro[1,2,4]triazolo[4,3-a]pyrazin-8(5H)-one] |
| 0.0096 | – | O=C1c2nnc(-c3cnccn3)n2C[C@H](C2CC2)N1Cc1cccc(C(F)(F)F)c1Cl (single isomer, unassigned) [Example 63] |
| – | 0.02 | O=C1c2nnc(-c3ccc(F)cn3)n2CC(C2CC2)N1Cc1cccc(C(F)(F)F)c1Cl (racemic) [Example 69, (±)-7-[2-Chloro-3-(trifluoromethyl)benzyl]-6-cyclopropyl-3-(5-fluoropyridin-2-yl)-6,7-dihydro[1,2,4]triazolo[4,3-a]pyrazin-8(5H)-one] |
| – | 0.004 | O=C1c2nnc(-c3cnccn3)n2CC(C2CC2)N1Cc1cccc(C(F)(F)F)c1Cl (racemic) [Example 61, (±)-7-[2-Chloro-3-(trifluoromethyl)benzyl]-6-cyclopropyl-3-pyrazin-2-yl-6,7-dihydro[1,2,4]triazolo[4,3-a]pyrazin-8(5H)-one] |
| – | 0.0011 | O=C1c2nnc(-c3cc[nH]n3)n2CC(C2CC2)N1Cc1cccc(C(F)(F)F)c1Cl (racemic) [Example 68, (±)-7-[2-Chloro-3-(trifluoromethyl)benzyl]-6-cyclopropyl-3-(1H-pyrazol-3-yl)-6,7-dihydro[1,2,4]triazolo[4,3-a]pyrazin-8(5H)-one] |
| – | 0.0014 | CC[C@H]1Cn2c(nnc2-c2cccnc2)C(=O)N1Cc1cccc(C(F)(F)F)c1Cl [Example 73, (6S)-7-[2-Chloro-3-(trifluoromethyl)benzyl]-6-ethyl-3-pyridin-3-yl-6,7-dihydro[1,2,4]triazolo[4,3-a]pyrazin-8(5H)-one] |
| – | 0.0181 | O=C1c2nnc(-c3ncccn3)n2C[C@@H](C2CC2)N1Cc1cccc(C(F)(F)F)c1Cl (single isomer, unassigned) [Example 65, (6R*)-7-[2-Chloro-3-(trifluoromethyl)benzyl]-6-cyclopropyl-3-pyrimidin-2-yl-6,7-dihydro[1,2,4]triazolo[4,3-a]pyrazin-8(5H)-one] |
| – | 0.0014 | O=C1c2nnc(-c3ncccn3)n2CC(C2CC2)N1Cc1cccc(C(F)(F)F)c1Cl (racemic) [Example 64, (±)-7-[2-Chloro-3-(trifluoromethyl)benzyl]-6-cyclopropyl-3-pyrimidin-2-yl-6,7-dihydro[1,2,4]triazolo[4,3-a]pyrazin-8(5H)-one] |
